Earlier results, collected in PMC5986796.

The chains behind the UniProt entries cited, without tags or fusion partners. Residues count along the entry.
UniProt P19235, 25-250: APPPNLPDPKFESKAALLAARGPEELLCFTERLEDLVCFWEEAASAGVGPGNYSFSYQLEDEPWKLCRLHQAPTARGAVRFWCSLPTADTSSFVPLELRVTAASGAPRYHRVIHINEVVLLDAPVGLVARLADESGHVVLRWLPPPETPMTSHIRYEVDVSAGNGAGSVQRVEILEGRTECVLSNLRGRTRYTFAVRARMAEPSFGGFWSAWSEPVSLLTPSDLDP

Biological target: Erythropoietin receptor (site 1) (Homo sapiens) (UniProt P19235)

For Erythropoietin (from UniProt P01588), the Kd is given as 1 nM.
